US6013659A, “Methods of reducing tumor colony number using novel benzothiazole compounds” (University of Pittsburgh, priority 1998, dated 2000)

Tests used:
tumors = test: Infiltration of tumors/metastases by A-NK cells and side effects (choice of effective amount); assay type: in vivo, mouse
Method: The effective amount of A-NK cells is 3-4×10^7 cells per 20 g mouse. […] The A-NK cells are administered intravenously to the mice.
IL-2 (obtained from Chiron corporation, Emeryville, Calif.) is administered at 120,000 IU i.v. per 20 g mouse initially and 120,000 IU i.p after 8 h. […] In addition the increase in infiltration was not proportional to the increased amount of IL-2 administered.

cancer cells = settings: literature (Goldfarb et al.); cited from earlier work

interleukin-2 [IL-2]
infiltration of tumors (tumors; 120,000 IU i.v. per 20 g mouse initially and 120,000 IU i.p. after 8 h): maximal infiltration of tumors
side effects (tumors; larger amounts of IL-2): unwanted side effects
direct effect on cancer cells (cancer cells): did not have a direct effect on cancer cells
